These are literature values, as cited in publication PMC3299805.

Amino acid sequences for entries named in this document (tags omitted). A change or cut given only in a name is not applied to a line headed by its entry. Residues count along the entry.
UniProt Q00560: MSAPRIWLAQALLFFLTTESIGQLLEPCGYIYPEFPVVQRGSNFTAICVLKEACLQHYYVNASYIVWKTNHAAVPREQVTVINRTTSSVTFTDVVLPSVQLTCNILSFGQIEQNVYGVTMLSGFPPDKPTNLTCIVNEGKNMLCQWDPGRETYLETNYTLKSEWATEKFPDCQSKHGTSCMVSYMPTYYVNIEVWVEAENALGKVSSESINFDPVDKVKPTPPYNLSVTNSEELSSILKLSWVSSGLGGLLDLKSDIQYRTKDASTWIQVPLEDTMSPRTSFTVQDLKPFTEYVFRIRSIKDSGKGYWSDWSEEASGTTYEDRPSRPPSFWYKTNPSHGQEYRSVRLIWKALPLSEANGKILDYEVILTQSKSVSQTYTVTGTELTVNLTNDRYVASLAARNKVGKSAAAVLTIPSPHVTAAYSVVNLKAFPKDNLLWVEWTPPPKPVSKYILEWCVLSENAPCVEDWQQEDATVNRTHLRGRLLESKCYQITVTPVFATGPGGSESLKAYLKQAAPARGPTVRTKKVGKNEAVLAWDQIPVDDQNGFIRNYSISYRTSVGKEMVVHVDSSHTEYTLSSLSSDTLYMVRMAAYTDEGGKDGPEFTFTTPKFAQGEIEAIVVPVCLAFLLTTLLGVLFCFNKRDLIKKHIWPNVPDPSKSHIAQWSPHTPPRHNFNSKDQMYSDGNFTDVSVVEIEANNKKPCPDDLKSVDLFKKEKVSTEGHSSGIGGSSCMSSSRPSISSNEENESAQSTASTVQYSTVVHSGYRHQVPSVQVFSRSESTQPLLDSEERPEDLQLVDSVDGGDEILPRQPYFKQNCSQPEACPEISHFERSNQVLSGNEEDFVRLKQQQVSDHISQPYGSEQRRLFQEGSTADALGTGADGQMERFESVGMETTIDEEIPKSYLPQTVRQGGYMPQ
UniProt O35718, 43-145: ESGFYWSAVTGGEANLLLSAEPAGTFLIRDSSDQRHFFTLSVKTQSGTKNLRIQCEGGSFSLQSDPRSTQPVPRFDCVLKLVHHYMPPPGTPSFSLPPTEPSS

The target of the data set is gp130 phosphopeptide 750-764 (Mus musculus) (UniProt Q00560).

On to SOCS3 SH2 (from UniProt O35718), for which the Kd is 100 nM.

What is called Kd is the constant that tells how readily two partners part at equilibrium.
